Binding of CDR-mutated scFvs to a peptide of the spike HR2 region

Data: MIT Lincoln Laboratory AlphaSeq set, Engelhart et al. 2022, doi:10.1038/s41597-022-01779-4, as distributed in FLAb.

Target: peptide PDVDLGDISGINAS, taken from heptad repeat 2 (HR2) of SARS-CoV-2 spike.

Ab-14 is the parent antibody, in scFv form: VH, then a 15-residue (Gly4Ser)3 linker, then VL. The heavy chain is unchanged in all variants.
VH: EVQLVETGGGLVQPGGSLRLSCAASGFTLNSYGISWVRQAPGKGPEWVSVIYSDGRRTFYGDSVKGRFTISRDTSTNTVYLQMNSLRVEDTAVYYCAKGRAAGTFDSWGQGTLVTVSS
VL: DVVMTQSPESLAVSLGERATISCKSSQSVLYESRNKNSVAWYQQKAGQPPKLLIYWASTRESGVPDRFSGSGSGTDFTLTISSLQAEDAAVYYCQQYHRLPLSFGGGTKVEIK

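The starting antibody came from a phage panning campaign against this peptide. Variants in AAYL50 differ from the parent at up to three CDR positions; double and triple changes were sampled at random. In AlphaSeq, yeast of one mating type display the scFv and yeast of the other type display the target. After mating in shaken culture at 30 °C for 16 h, diploids were selected and their barcode pairs sequenced. Read counts were normalised to the haploid input and turned into Kd by a linear fit to BCL2-family pairs of known affinity, for each replicate. Mating was done three times.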

Variants are written as CDR1, CDR2 and CDR3 of the light chain (limits as in the source). Parent: KSSQSVLYESRNKNSVA, WASTRES, QQYHRLPLS. Every variant below is changed at K24 of the VL (sequential numbering). The Kd shown is the geometric mean over detected replicates; a lower Kd is a better binder. "no signal" means that the variant was in the library but no mating with the target was seen in any replicate; the authors take this as a sign of poor binding, and no number exists. As a blank, each scFv also met three strains without target: over library AAYL50, 18% of these pairings were detected, typically at 15 µM and seldom below 970 nM.

CDR-L1,CDR-L2,CDR-L3,Kd,replicates with signal
LSSQSVDYESRNKNSVA,WASTRES,GQYHRLPLS,50 nM,3/3
QSSQSVLYEPNNKNSVA,WASTRES,QQYHRLPLS,4.5 nM,3/3
GSIMSVLYESRNKNSVA,WASTRES,QQYHRLPLS,4.5 µM,1/3
QSRQSVLYESRNKNSVA,WASTRES,QQYHRLPGS,no signal,0/3
TSSQSVLYESRNKNSVA,WASTRES,QYYHRLPLE,no signal,0/3
ASSQSVLYESRNKNSVA,WASTRES,QQYHRLPLS,22 nM,3/3
VSSQSVVYESRNKNSVA,WASTRES,QQYHRLPLF,27 nM,3/3
TSSQSVLYESRNKNSVA,WASTRES,QEYHRLPLV,1.6 µM,3/3
ISSQSVLYVSRNKNSVA,WASTRES,QQYHRLPLA,no signal,0/3
NSSQSVLYEARRKNSVA,WASTRES,QQYHRLPLS,1.4 µM,3/3
QSSQSVLYESRNKNSVA,WASTRIS,QQYTRLPLS,42 nM,3/3
HSSQSVLYESRNKNSVA,WASTREL,QQYHILPLS,33 nM,3/3
DSSQSVLYESRNKNSVA,WASTRES,QQYHRRPLS,240 nM,3/3
LSAQSVLYESRNKNSVA,WASTRES,QQYHRLPLS,6.6 µM,1/3
YSSQSVLYESRNKNSVI,WASTRYS,QQYHRLPLS,820 nM,1/3
YSSQSVDYESRNKNSVA,WASTRES,QQYHRLMLS,99 nM,3/3
PSSQSVLYESRNKNSVA,WASTREQ,QQYHWLPLS,no signal,0/3
VSSQSVLYESRNKNSVA,YASTRES,QQYHRLSLS,no signal,0/3
MSSQSVLYVTRNKNSVA,WASTRES,QQYHRLPLS,2.9 µM,2/3
GSSQSVLYEWRNKNSVA,WASTRES,GQYHRLPLS,290 nM,2/3
HDSQSVLFESRNKNSVA,WASTRES,QQYHRLPLS,3.8 nM,3/3
EMSQSVLYESRNKNSVA,WASTRES,QQYHKLPLS,4.2 µM,1/3
TSSQSVLYESRNKNSVA,WASTRES,QQYHDLPLS,95 nM,3/3
RSYQSVLYESRNKNSVA,WASTRES,QQYHRLVLS,200 nM,3/3
WSSQSVLYESRNKNIEA,WASTRES,QQYHRLPLS,56 µM,1/3
WSSQSVLMESRNKNSVA,WASTRES,QQYHSLPLS,330 nM,3/3
GSSQSVLYESANKNSVA,WASTRES,QQYHRNPLS,16 nM,3/3
TSSQSVLYESRNKNEVA,WKSTRES,QQYHRLPLS,23 µM,2/3
LSSTSVLYESRNKNSVA,WAVTRES,QQYHRLPLS,22 µM,3/3
MSSQSQLYESRNKNSVA,WASTRES,QQYHRDPLS,310 nM,2/3
ASSQSHLYESRNKNSVA,WASSRES,QQYHRLPLS,1.4 µM,2/3
WSSQSVLYESRNKNSVA,WASIRES,QQYERLPLS,170 nM,3/3
SSSQSVLYESRCKNSVA,LASTRES,QQYHRLPLS,no signal,0/3
MSSQSVLYESRNKMSVA,KASTRES,QQYHRLPLS,7.7 nM,3/3
HSSQSVLYESRNKNSVA,WASTRES,QSYHRLGLS,no signal,0/3
GSSQSTLYESRPKNSVA,WASTRES,QQYHRLPLS,4.7 µM,3/3
PSSQSVLYESRNKNSVA,WASTRET,QNYHRLPLS,no signal,0/3
VSSQSVLYESRNKNSVA,WASTRES,QQYHRLPLS,130 nM,3/3
MSSQSVLYESRNKNTVA,WWSTRES,QQYHRLPLS,2.3 µM,1/3
GSSQWVLYESRNKNSVA,WASTRES,QQYHFLPLS,no signal,0/3
SSSQSVLYESRNMNSVA,KASTRES,QQYHRLPLS,1.7 nM,3/3
RSPQSVLYESRNKNSVA,MASTRES,QQYHRLPLS,7.6 µM,1/3
TSSQHVLYESRNKNSVA,WASTRES,QSYHRLPLS,67 µM,1/3
NSSQSVLYESRNKNSVA,WASHRES,QQYHRLPLS,61 nM,3/3
VSSQSVLYESRNMNSVA,WASTRES,QQYHVLPLS,8.1 nM,3/3

Top 3 of the variants detected in all replicates, tightest first:

CDR-L1	CDR-L2	CDR-L3	Kd	replicates with signal
SSSQSVLYESRNMNSVA	KASTRES	QQYHRLPLS	1.7 nM	3/3
HDSQSVLFESRNKNSVA	WASTRES	QQYHRLPLS	3.8 nM	3/3
QSSQSVLYEPNNKNSVA	WASTRES	QQYHRLPLS	4.5 nM	3/3